Measured Henry's law constant values of organic chemicals

From the experimental data distributed with OPERA 2.9.

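The OPERA project collected these measurements from public sources as training and test data for property models. One number stands for a compound and property, with no spread given. How each value was measured is not recorded, so precision varies. The measured form (salt, isomer or mixture) is not always the one drawn. Unmarked limits or estimates from the upstream databases cannot be ruled out.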

The Henry's law constant is on a log10 scale in atm·m3/mol (set defined at 25 °C); higher favours air over water.
"via" names the databases from which the curators took the value.

CNC(=O)ON=CC(C)(C)S(C)(=O)=O [Aldicarb sulfone] is reported with log H -10.55 (log10 atm·m3/mol) (via OCHEM). For OC(Cn1cncn1)(c1ccc(F)cc1)c1ccccc1F (centres undefined) the data give log H -10.9 (log10 atm·m3/mol) (via OCHEM). C#CCN1CC(=O)N(COC(=O)C2C(C=C(C)C)C2(C)C)C1=O (centres undefined) [Imiprothrin] is reported with log H -10.21 (log10 atm·m3/mol) (via OCHEM). Listed for CCOC(=O)CCN(SN(C)C(=O)Oc1cccc2c1OC(C)(C)C2)C(C)C: log H -8.683 (log10 atm·m3/mol) (via OCHEM).

Listed for CC(Oc1cccc(Cl)c1)C(=O)O (centres undefined) [2-(m-Chlorophenoxy)propionic acid]: log H -7.783 (log10 atm·m3/mol) (via OCHEM). For CCC1(CC2(c3cccc(Cl)c3)CO2)C(=O)c2ccccc2C1=O (centres undefined) [Indanofan] the data give log H -9.258 (log10 atm·m3/mol) (via OCHEM). Listed for COCCN(C(=O)CCl)c1c(C)cccc1C [Dimethachlor]: log H -8.775 (log10 atm·m3/mol) (via OCHEM). The entry for C#CCOC(=O)/C=C(C)/C=C/CC(C)CCCC(C)C (stereo partly drawn) [Kinoprene] lists log H -4.47 (log10 atm·m3/mol) (via OCHEM).

The entry for CCCCc1c(C)nc(N(C)C)nc1O [Dimethirimol] lists log H -8.599 (log10 atm·m3/mol) (via OCHEM). CCOC(=O)C1(C)OC(=O)N(c2cc(Cl)cc(Cl)c2)C1=O (centres undefined) [Chlozolinate] is reported with log H -8.875 (log10 atm·m3/mol) (via OCHEM). For COP(=S)(OC)Oc1c(Cl)cc(C)cc1Cl [Tolclofos-methyl] the data give log H -5.438 (log10 atm·m3/mol) (via OCHEM). Listed for CN(C)C(O)=Nc1ccc(-n2nc(C(C)(C)C)oc2=O)c(Cl)c1 [Dimefuron]: log H -7.679 (log10 atm·m3/mol) (via OCHEM).

The entry for O=C(NC(=O)c1c(F)cccc1F)Nc1ccc(Cl)c(Oc2ncc(C(F)(F)F)cc2Cl)c1 [Fluazuron] lists log H -10.52 (log10 atm·m3/mol) (via OCHEM). For Clc1cccc(C(Cl)(Cl)Cl)n1 [Nitrapyrin] the data give log H -4.853 (log10 atm·m3/mol) (via OCHEM). The entry for CC1(C)C(/C=C(\Cl)C(F)(F)F)C1C(=O)OC(C#N)c1cccc(Oc2ccccc2)c1 (stereo partly drawn) [alpha-Cyhalothrin] lists log H -6.75 (log10 atm·m3/mol) (via OCHEM). For Cc1ccc(N(SC(F)(Cl)Cl)S(=O)(=O)N(C)C)cc1 [Tolylfluanid] the data give log H -6.119 (log10 atm·m3/mol) (via OCHEM).

Listed for Cc1cc(=O)[nH]o1 [Hymexazol]: log H -8.86 (log10 atm·m3/mol) (via OCHEM). CCOc1ccccc1OS(=O)(=O)NC(=O)Nc1nc(OC)cc(OC)n1 [Ethoxysulfuron] has log H -7.718 (log10 atm·m3/mol) (via OCHEM). O=C(O)c1ccccc1C(=O)Nc1cccc2ccccc12 [Naptalam] is reported with log H -2.718 (log10 atm·m3/mol) (via OCHEM). COC(=O)NC(=S)Nc1ccccc1NC(=S)NC(=O)OC [Thiophanate-methyl] has log H -9.097 (log10 atm·m3/mol) (via OCHEM).

The entry for CC1(C)[C@H](C(=O)O[C@H](C#N)c2cccc(Oc3ccccc3)c2)[C@@H]1/C=C\C(=O)OC(C(F)(F)F)C(F)(F)F [Acrinathrin] lists log H -6.75 (log10 atm·m3/mol) (via OCHEM). Listed for CNC(=O)Oc1ccccc1C1OCCO1 [Dioxacarb]: log H -10.83 (log10 atm·m3/mol) (via OCHEM). CCOP(=S)(OCC)Oc1cnc2ccccc2n1 [Quinalphos] is reported with log H -7.334 (log10 atm·m3/mol) (via OCHEM). The entry for CCNc1nc(NC(C)(C)C)nc(SC)n1 [Terbutryn] lists log H -7.83 (log10 atm·m3/mol) (via OCHEM).

The entry for C#CC(OC(=O)C1C(C=C(C)C)C1(C)C)/C(C)=C/CC (stereo partly drawn) [Empenthrin] lists log H -3.466 (log10 atm·m3/mol) (via OCHEM). CC1(C)[C@H](C=C(Cl)Cl)[C@H]1C(=O)OCc1c(F)c(F)cc(F)c1F [Transfluthrin] is reported with log H -4.591 (log10 atm·m3/mol) (via OCHEM). CNC(=O)N(C)c1nc2ccccc2s1 [Methabenzthiazuron] has log H -7.298 (log10 atm·m3/mol) (via OCHEM). CCOP(=S)(OCC)Oc1ccc(=O)n(-c2ccccc2)n1 [Pyridaphenthion] has log H -10.31 (log10 atm·m3/mol) (via OCHEM).

O=C1C(Cl)C(CCl)CN1c1cccc(C(F)(F)F)c1 (centres undefined) [Flurochloridone] has log H -7.626 (log10 atm·m3/mol) (via OCHEM). The entry for CSC(C)=NOC(=O)N(C)SN(C)C(=O)ON=C(C)SC [Thiodicarb] lists log H -6.371 (log10 atm·m3/mol) (via OCHEM). The entry for CC1(C)[C@H](C(=O)O[C@H](C#N)c2cccc(Oc3ccccc3)c2)[C@@H]1/C=C(\Cl)C(F)(F)F lists log H -6.705 (log10 atm·m3/mol) (via OCHEM). CC(C)OC(=O)Cl [Isopropyl chloroformate] has log H -2.382 (log10 atm·m3/mol) (via eChemPortal).

The entry for CCCOP(=S)(OCCC)SCC(=O)N1CCCCC1C (centres undefined) [Piperophos] lists log H -8.353 (log10 atm·m3/mol) (via OCHEM). Listed for Clc1cc(Cl)nc(-c2ccccc2)n1 [4,6-Dichloro-2-phenylpyrimidine]: log H -4.964 (log10 atm·m3/mol) (via OCHEM). CN(C(=O)COc1nc2ccccc2s1)c1ccccc1 [Mefenacet] is reported with log H -9.327 (log10 atm·m3/mol) (via OCHEM). Listed for O=C(NC(=O)c1c(F)cccc1F)Nc1cc(Cl)c(OC(F)(F)C(F)C(F)(F)F)cc1Cl (centres undefined): log H -6.473 (log10 atm·m3/mol) (via OCHEM).

The entry for CCCCCCCCSC(=O)Oc1cc(Cl)nnc1-c1ccccc1 [Pyridate] lists log H -8.923 (log10 atm·m3/mol) (via OCHEM). COC(=O)C(C)N(C(=O)c1ccco1)c1c(C)cccc1C (centres undefined) [Furalaxyl] has log H -9.037 (log10 atm·m3/mol) (via OCHEM). For CC(C)OC(=O)c1cc(-c2nn(C)c(C(F)(F)F)c2Br)c(F)cc1Cl [Fluazolate] the data give log H -6.109 (log10 atm·m3/mol) (via OCHEM). Listed for NCP(=O)(O)O [Aminomethylphosphonic acid]: log H -5.802 (log10 atm·m3/mol) (via OCHEM).

O=C1CCc2cccc3c2N1CC3 [Pyroquilon] has log H -10.16 (log10 atm·m3/mol) (via OCHEM). CCN(C(=O)SCc1ccccc1)C(C)C(C)C (centres undefined) [Esprocarb] is reported with log H -5.268 (log10 atm·m3/mol) (via OCHEM). The entry for CNC(=O)ON=C(CSC)C(C)(C)C lists log H -8.028 (log10 atm·m3/mol) (via OCHEM). For NC(=S)c1c(Cl)cccc1Cl [Chlorthiamid] the data give log H -9.555 (log10 atm·m3/mol) (via OCHEM).

For COP(N)(=O)SC (centres undefined) [Methamidophos] the data give log H -10.8 (log10 atm·m3/mol) (via OCHEM). For CC(C)(C)C(O)/C(=C\c1ccc(Cl)cc1Cl)n1cncn1 (stereo partly drawn) [Diniconazole] the data give log H -6.404 (log10 atm·m3/mol) (via OCHEM). CNC(=O)ON=CC(C)(C)S(C)=O (centres undefined) [Aldicarb sulfoxide] has log H -9.014 (log10 atm·m3/mol) (via OCHEM). Listed for CC(C)OC(=O)C(C(=O)OC(C)C)=C1SCCS1 [Isoprothiolane]: log H -6.006 (log10 atm·m3/mol) (via OCHEM).

Listed for Cc1c(F)c(F)c(COC(=O)C2C(/C=C(\Cl)C(F)(F)F)C2(C)C)c(F)c1F (stereo partly drawn) [Tefluthrin]: log H -2.705 (log10 atm·m3/mol) (via OCHEM). CCSCCSP(=S)(OC)OC [Thiometon] is reported with log H -6.552 (log10 atm·m3/mol) (via OCHEM). COP(=O)(OC)O/C(=C\Cl)c1cc(Cl)c(Cl)cc1Cl has log H -8.736 (log10 atm·m3/mol) (via OCHEM). For CCCSP(=S)(OCC)Oc1ccc(SC)cc1 (centres undefined) [Sulprofos] the data give log H -6.066 (log10 atm·m3/mol) (via OCHEM).

The entry for CC(C)(COCc1cccc(Oc2ccccc2)c1)c1ccc(OC(F)(F)Br)cc1 [Halfenprox] lists log H -4.134 (log10 atm·m3/mol) (via OCHEM). For CC1(C)OC(c2ccco2)CN1C(=O)C(Cl)Cl (centres undefined) [Furilazole] the data give log H -10.04 (log10 atm·m3/mol) (via OCHEM). O=C(NC(=O)c1c(F)cccc1F)Nc1cc(Cl)c(F)c(Cl)c1F [Teflubenzuron] has log H -7.162 (log10 atm·m3/mol) (via OCHEM). CC(C)=CC1C(C(=O)OCN2C(=O)C3=C(CCCC3)C2=O)C1(C)C (centres undefined) [Tetramethrin] has log H -5.773 (log10 atm·m3/mol) (via OCHEM).

CCOP(=S)(OCC)ON=C(C#N)c1ccccc1 [Phoxim] is reported with log H -5.385 (log10 atm·m3/mol) (via OCHEM). Listed for CN(C)C(=S)SSC(=S)N(C)C [Bis(dimethylaminothiocarbonyl) disulfide]: log H -6.487 (log10 atm·m3/mol) (via OCHEM). Listed for Cc1ccccc1C(=O)Nc1cccc(OC(C)C)c1 [Mepronil]: log H -7.93 (log10 atm·m3/mol) (via OCHEM). CCCN(CCC)C(=O)SCc1ccccc1 [Prosulfocarb] is reported with log H -6.824 (log10 atm·m3/mol) (via OCHEM).

The entry for O=C1c2ccccc2C(=O)C1C(=O)C(c1ccccc1)c1ccccc1 [Diphacinone] lists log H -9.815 (log10 atm·m3/mol) (via OCHEM). For O=C(NC(=O)c1ccccc1Cl)Nc1ccc(OC(F)(F)F)cc1 [Triflumuron] the data give log H -7.753 (log10 atm·m3/mol) (via OCHEM). Listed for CCNc1nc(Cl)nc(NC(C)(C)C)n1 [Terbutylazine]: log H -7.495 (log10 atm·m3/mol) (via OCHEM). Listed for CNC(=O)Oc1ccccc1C(C)C [Isoprocarb]: log H -7.705 (log10 atm·m3/mol) (via OCHEM).

The first 11 entries again:

{"smiles": "CNC(=O)ON=CC(C)(C)S(C)(=O)=O", "name": "Aldicarb sulfone", "log H (log10 atm·m3/mol)": "-10.55", "via": "OCHEM"}
{"smiles": "OC(Cn1cncn1)(c1ccc(F)cc1)c1ccccc1F", "stereo": "centres undefined", "log H (log10 atm·m3/mol)": "-10.9", "via": "OCHEM"}
{"smiles": "C#CCN1CC(=O)N(COC(=O)C2C(C=C(C)C)C2(C)C)C1=O", "stereo": "centres undefined", "name": "Imiprothrin", "log H (log10 atm·m3/mol)": "-10.21", "via": "OCHEM"}
{"smiles": "CCOC(=O)CCN(SN(C)C(=O)Oc1cccc2c1OC(C)(C)C2)C(C)C", "log H (log10 atm·m3/mol)": "-8.683", "via": "OCHEM"}
{"smiles": "CC(Oc1cccc(Cl)c1)C(=O)O", "stereo": "centres undefined", "name": "2-(m-Chlorophenoxy)propionic acid", "log H (log10 atm·m3/mol)": "-7.783", "via": "OCHEM"}
{"smiles": "CCC1(CC2(c3cccc(Cl)c3)CO2)C(=O)c2ccccc2C1=O", "stereo": "centres undefined", "name": "Indanofan", "log H (log10 atm·m3/mol)": "-9.258", "via": "OCHEM"}
{"smiles": "COCCN(C(=O)CCl)c1c(C)cccc1C", "name": "Dimethachlor", "log H (log10 atm·m3/mol)": "-8.775", "via": "OCHEM"}
{"smiles": "C#CCOC(=O)/C=C(C)/C=C/CC(C)CCCC(C)C", "stereo": "stereo partly drawn", "name": "Kinoprene", "log H (log10 atm·m3/mol)": "-4.47", "via": "OCHEM"}
{"smiles": "CCCCc1c(C)nc(N(C)C)nc1O", "name": "Dimethirimol", "log H (log10 atm·m3/mol)": "-8.599", "via": "OCHEM"}
{"smiles": "CCOC(=O)C1(C)OC(=O)N(c2cc(Cl)cc(Cl)c2)C1=O", "stereo": "centres undefined", "name": "Chlozolinate", "log H (log10 atm·m3/mol)": "-8.875", "via": "OCHEM"}
{"smiles": "COP(=S)(OC)Oc1c(Cl)cc(C)cc1Cl", "name": "Tolclofos-methyl", "log H (log10 atm·m3/mol)": "-5.438", "via": "OCHEM"}